The target of the assay is nonselective muscarinic receptor. Briefly: Binding at the nonselective muscarinic receptor. The settings on record: rat cerebral cortex. How it is done: IC50 values (concentration required to inhibit 50% specific binding) were then determined by nonlinear regression analysis of the curves and tabulated below.

What is called IC50 is the concentration that gives 50% inhibition. A higher IC50 goes with a need for much substance. `CC(C)CC(N(C)C)C1(c2ccc(Cl)cc2)CCC1` (racemic) [(R/S)-Sibutramine, [N-1-[1-(4-chlorophenyl)cyclobutyl]-3-methylbutyl]-N,N-dimethylamine, reference compound]: the IC50 turned out to be 2.65 µM.

(Values after patent US6974837B2, “Compositions comprising sibutramine metabolites in combination with phosphodiesterase inhibitors” (Sepracor Inc., priority 1999, dated 2005).)
